Reference: US11780826B2 (Amgen Inc., priority 2017, dated 2023)

System: Bovine cardiac myofibrils
Test: In vitro model of dose-dependent myofibril ATPase modulation (AC1.4, pyruvate kinase/lactate dehydrogenase-coupled ATPase assay at pCa25)
Format: biochemical
Conditions: concentration at which ATPase activity was 1.4-fold higher than the bottom of the dose curve, mean of a minimum of two independent tests
Method: In vitro Model of Dose-Dependent Myofibril ATPase Modulation: Dose responses were measured using a calcium-buffered, pyruvate kinase and lactate dehydrogenase-coupled ATPase assay containing the following reagents (concentrations expressed are final assay concentrations): Potassium PIPES (12 mM), MgCl2 (2 mM), ATP (1 mM), DTT (1 mM), BSA (0.1 mg/mi), NADH (0.5 mM), PEP (1.5 mM), pyruvate kinase (4 U/ml), lactate dehydrogenase (8 U/ml), and antifoam (90 ppm). The pH was adjusted to 6.80 at 22° C. by addition of potassium hydroxide.
Bovine cardiac myofibrils were obtained by homogenizing the appropriate tissue in the presence of detergent. Such treatment removes membranes and majority of soluble cytoplasmic proteins but leaves intact cardiac sarcomeric acto-myosin apparatus. Concentrations of myofibrils were adjusted to achieve the necessary rate of ATP hydrolysis (typically 0.25-1.0 mg/ml).
Assays were performed by first preparing a dilution series of test chemical entity, each with an assay mixture containing potassium Pipes, MgCl2, BSA, DTT, pyruvate kinase, lactate dehydrogenase, myofibrils, antifoam, EGTA, CaCl2, and water. The assay was started by adding an equal volume of solution containing potassium Pipes, MgCl2, BSA, DTT, ATP, NADH, PEP, antifoam, and water. ATP hydrolysis was monitored by absorbance at 340 nm. […]

Cc1ccc(C(=O)N2[C@@H](C(=O)N[C@@H](c3cc(F)c(C(F)(F)F)cc3F)C3COC3)C[C@H]3C[C@H]32)s1 [Example 816, (1R,3R,5R)-N-((R)-(2,5-difluoro-4-(trifluoromethyl)phenyl)(oxetan-3-yl)methyl)-2-(5-methylthiophene-2-carbonyl)-2-azabicyclo[3.1.0]hexane-3-carboxamide]
AC1.4: 2.775 µM
